This passage reports Km results from ChEMBL document CHEMBL1126372, “Synthesis of L-chiro-inositol 1,4,6-trisphosphorothioate, a potent and selective inhibitor of myo-inositol 1,4,5-trisphosphate 5-phosphatase” (Bioorg Med Chem Lett, 1992).

The assay is filed under the species Homo sapiens.

`O=P(O)(O)O[C@@H]1[C@H](O)[C@H](O)[C@@H](OP(=O)(O)O)[C@H](OP(=O)(O)O)[C@H]1O` [INS(1,4,5)P3]: the Km was found to be 19 µM.

One may read the Km as the substrate concentration at which the rate is half of its maximum.
